UUG fidelity – modulators of start codon recognition fidelity in yeast; S. cerevisiae UUG-firefly luciferase reporter, luminescence/redox ratio; AID 602363; 350,000 tested, 0.13% active; activity score, % at 18.7 µM;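 active = replicate mean at a twofold rise or more, about +100% in these data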;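 also: firefly luciferase made from a UUG start codon reports start codon fidelity; reporter light over untreated wells divided by growth signal over untreated wells; some hits fall short of that in this replicate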
RAD52 inh – RAD52 DNA annealing inhibitors, primary screen, biochemical, FRET, single point, set 2 | inhibition, % at 18.7 µM | DNA repair protein RAD52 homolog (Homo sapiens), P43351 | 0.46% of 360,000 active | recombinant RAD52 DNA annealing, FRET fluorescence | AID 651710, 2012;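 active = every replicate showing at least 50% inhibition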
E-selectin induc – E-selectin induction in HUVECs, primary screen, imaging, HUVEC, immunofluorescence imaging, single point; P16581; normalized: neutral wells 0, TNF-alpha wells 100; activation, % at 7.58 µM; 0.37% of 260,000 active;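 active = mean E-selectin-positive cell signal at least 10% of the positive control, reached in at least 60% of replicates, without over 20% cell loss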
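Test system: HUVEC | Signal: Immunofluorescence imaging | Read-out: Percent E-selectin-positive cells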
XiGFP reactiv – activators of inactive X chromosome reactivation, primary screen, imaging, XiGFP fibroblasts, GFP high-content imaging, set 2; 0.055% of 360,000 active; activation, % at 7.58 µM; AID 743238, 2013; XiGFP mouse fibroblasts, % GFP-positive cells imaging, 3 d; cells co-treated with 5-aza-dC sensitizer; scaled so ellipticine positive control = 100%;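 active = mean normalized replicate activation at least 10% and every replicate at or above 10%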
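System: 68-5-11 XiGFP fibroblast line | Buffer or medium: DMEM containing 5-aza-dC | Compound: Single point | Times: Compounds 3 days, fix/stain 15 min at room temperature | Benchmarks: Positive control ellipticine, 6 µM final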
RAD54 branch – inhibitors of human RAD54 branch migration, primary screen, biochemical, fluorescence, single point; DNA repair and recombination protein RAD54-like (Homo sapiens), Q92698; RAD54 Holliday junction branch migration, FAM/BHQ fluorescence; inhibition, % at 10.4 µM; 0.14% of 360,000 active;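 active = mean normalized replicate activity at least 40 and at least half of replicates scoring 40 or more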;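 note: inhibitors cause a drop in the FAM fluorescence signal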
Of the large screens only hits and unclear results are named; the others gave an inactive call; ! = not active in a repeat. Shown are actives, neighbours in structure and some others; about 0.73% of the full set was active somewhere.

The chains behind the UniProt entries cited, without tags or fusion partners.
DNA repair protein RAD52 homolog (Homo sapiens), P43351, UniProt P43351, whole entry, looked up: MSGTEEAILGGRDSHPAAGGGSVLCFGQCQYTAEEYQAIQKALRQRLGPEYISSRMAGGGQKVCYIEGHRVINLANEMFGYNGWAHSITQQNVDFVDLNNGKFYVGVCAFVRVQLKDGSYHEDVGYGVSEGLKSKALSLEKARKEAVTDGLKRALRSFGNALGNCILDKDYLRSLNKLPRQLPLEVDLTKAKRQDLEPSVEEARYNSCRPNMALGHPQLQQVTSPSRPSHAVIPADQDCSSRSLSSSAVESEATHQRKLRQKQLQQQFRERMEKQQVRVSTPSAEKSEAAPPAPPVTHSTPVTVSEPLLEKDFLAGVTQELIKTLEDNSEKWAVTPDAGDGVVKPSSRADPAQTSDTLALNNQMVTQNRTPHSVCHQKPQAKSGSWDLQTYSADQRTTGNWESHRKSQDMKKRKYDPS
DNA repair and recombination protein RAD54-like (Homo sapiens), Q92698, UniProt Q92698, whole entry, looked up: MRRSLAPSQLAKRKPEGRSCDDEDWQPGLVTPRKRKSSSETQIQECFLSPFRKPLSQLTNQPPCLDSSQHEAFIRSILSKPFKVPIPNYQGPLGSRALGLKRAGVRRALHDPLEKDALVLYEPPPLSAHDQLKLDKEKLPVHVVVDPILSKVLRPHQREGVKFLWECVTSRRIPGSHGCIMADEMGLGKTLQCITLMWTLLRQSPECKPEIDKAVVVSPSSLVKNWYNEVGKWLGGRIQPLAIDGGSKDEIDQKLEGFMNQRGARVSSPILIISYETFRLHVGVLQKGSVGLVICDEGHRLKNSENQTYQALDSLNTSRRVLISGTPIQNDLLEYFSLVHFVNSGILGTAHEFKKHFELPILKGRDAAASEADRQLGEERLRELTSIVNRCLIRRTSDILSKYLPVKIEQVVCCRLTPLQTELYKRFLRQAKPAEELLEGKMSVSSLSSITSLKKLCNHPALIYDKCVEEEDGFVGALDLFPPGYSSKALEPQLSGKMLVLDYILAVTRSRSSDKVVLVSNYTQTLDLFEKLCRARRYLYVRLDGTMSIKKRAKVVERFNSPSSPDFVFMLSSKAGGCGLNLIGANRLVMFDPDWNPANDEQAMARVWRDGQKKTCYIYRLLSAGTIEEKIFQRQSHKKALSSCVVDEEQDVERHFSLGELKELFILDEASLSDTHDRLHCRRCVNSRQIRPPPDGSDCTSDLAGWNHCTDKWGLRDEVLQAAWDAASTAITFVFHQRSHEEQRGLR

COc1cccc(NC(=O)Nc2ccc3c(c2)OC[C@H](C)NC[C@@H](C)[C@@H](OC)CN(C)C3=O)c1	RAD52 inh 73.6
O=C1c2cccc(Sc3ccccc3)c2C(=O)c2c(Sc3ccccc3)cccc21	UUG fidelity 119.0
O=[N+]([O-])c1ccc(N2CCN(c3ccc([N+](=O)[O-])cc3CO)CC2)c(CO)c1	E-selectin induc 45.1
N#Cc1cc([N+](=O)[O-])ccc1N1CCN(c2ccccc2O)CC1	none
Cc1ccc(S(=O)(=O)Nc2ccc3c(c2)C(=O)N([C@@H](C)CO)C[C@@H](C)[C@@H](CN(C)S(=O)(=O)c2ccccc2)OCCCC[C@@H](C)O3)cc1	none
Cc1ccc(S(=O)(=O)N2C[C@@H]3N[C@H](C2)[C@@H]3c2ccc(-c3cccc(C)c3)cc2)cc1	none (no result: UUG fidelity, RAD52 inh, RAD54 branch)
O=S(=O)(c1ccc(-c2ccccc2)cc1)N1C[C@@H]2N[C@H](C1)[C@@H]2c1ccc(-c2cccnc2)cc1	RAD52 inh 72.9 (no result: UUG fidelity, RAD54 branch)
O=S(=O)(c1ccccc1)N1C[C@@H]2N[C@H](C1)C2c1ccc(-c2ccc(F)cc2)cc1 (stereo partly specified)	RAD52 inh 65.9! (no result: UUG fidelity, RAD54 branch)
Cc1cccc(S(=O)(=O)N2C[C@@H]3N[C@H](C2)C3c2ccc(-c3cccc(C#N)c3)cc2)c1 (stereo partly specified)	RAD52 inh 53.6! (no result: UUG fidelity, RAD54 branch)
Cc1ccc(-c2ccc(C3[C@@H]4CN(S(=O)(=O)c5cccc(C)c5)C[C@H]3N4)cc2)cc1 (stereo partly specified)	RAD52 inh 97.6 (no result: UUG fidelity, E-selectin induc, XiGFP reactiv, RAD54 branch)
CCCNC(=O)N1CC(=O)N2[C@H](C1)[C@H](c1ccc(-c3ccc(C)cc3)cc1)[C@@H]2CO	none (no result: UUG fidelity, RAD54 branch)
COCCNC(=O)C[C@H]1CC[C@@H]2[C@H](COC[C@@H](O)CN2Cc2ccc(Cl)c(Cl)c2)O1	none (no result: UUG fidelity, RAD52 inh)
O=S(=O)(c1ccc(F)cc1)N1C[C@@H]2N[C@H](C1)C2c1ccc(-c2ccc(F)cc2)cc1 (stereo partly specified)	RAD52 inh 87.1! (no result: UUG fidelity, RAD54 branch)
Cc1cccc(S(=O)(=O)N2C[C@@H]3N[C@H](C2)C3c2ccc(-c3ccccc3F)cc2)c1 (stereo partly specified)	RAD52 inh 80.3! (no result: UUG fidelity, RAD54 branch)
Cc1ccc(-c2ccc(C3[C@@H]4CN(S(=O)(=O)c5ccc(C)cc5)C[C@H]3N4)cc2)cc1 (stereo partly specified)	RAD52 inh 73.7 (no result: UUG fidelity, RAD54 branch)
CN(C)C(=O)c1ccc(-c2ccc(C3[C@@H]4CN(S(=O)(=O)c5ccc(F)cc5)C[C@H]3N4)cc2)cc1 (stereo partly specified)	none (no result: UUG fidelity, RAD54 branch)
COc1ccc(C(=O)N2C[C@H]3[C@@H](c4ccccc42)[C@H](CO)N3Cc2ccccc2Cl)cc1	none
C[C@@H]1CCCCO[C@H](CN(C)C(=O)Nc2ccc3c(c2)OCO3)[C@@H](C)CN([C@@H](C)CO)C(=O)c2cc(NS(=O)(=O)c3cn(C)cn3)ccc2O1	none
CCN(CC)CCNc1cccc2sc3ccccc3c(=O)c12	RAD54 branch 89.8
CCN1CCN(c2cc(C)c3cc(NC(=O)c4ccc(OC)c(OC)c4)ccc3n2)CC1	RAD54 branch 58.5
CCN1CCN(c2cc(C)c3cc(NC(=O)CCC(=O)Nc4ccc(OC)c(OC)c4)ccc3n2)CC1	none
CCN1C(=O)CC(c2ccccc2)N(C2CCCC2)c2nc(Nc3ccc(C(=O)NC4CCN(C)CC4)cc3OC)ncc21 (stereo unspecified)	none (no result: RAD52 inh, E-selectin induc, XiGFP reactiv)
COc1cc(C(=O)NC2CCN(C)CC2)ccc1Nc1ncc2c(n1)N(Cc1ccccc1)CCC(=O)N2C	RAD52 inh 69.8
CCOc1ccc(S(=O)(=O)N2CCC(C(=O)NCc3cccnc3)CC2)cc1	E-selectin induc 41.1
Cc1ccc(S(=O)(=O)N2CCC(C(=O)NCc3cccnc3)CC2)cc1	none (no result: E-selectin induc, XiGFP reactiv)
CNC[C@H]1Oc2ccc(NC(=O)C3CC3)cc2CC(=O)N([C@@H](C)CO)C[C@H]1C	none
CC1CN(S(=O)(=O)c2ccc(F)cc2)C(C)N1C(=O)N1CCOCC1 (stereo unspecified)	E-selectin induc 26.3
